In ChEMBL document CHEMBL6127021, “Inhibition of protein tyrosine phosphatase 1B by serratane triterpenes from Huperzia serrata and their molecular docking study” (Bioorg Med Chem Lett, 2024):

Molecular target: T1, Tyrosine-protein phosphatase non-receptor type 1 (Homo sapiens) (UniProt P18031)
T1 sequence (whole entry): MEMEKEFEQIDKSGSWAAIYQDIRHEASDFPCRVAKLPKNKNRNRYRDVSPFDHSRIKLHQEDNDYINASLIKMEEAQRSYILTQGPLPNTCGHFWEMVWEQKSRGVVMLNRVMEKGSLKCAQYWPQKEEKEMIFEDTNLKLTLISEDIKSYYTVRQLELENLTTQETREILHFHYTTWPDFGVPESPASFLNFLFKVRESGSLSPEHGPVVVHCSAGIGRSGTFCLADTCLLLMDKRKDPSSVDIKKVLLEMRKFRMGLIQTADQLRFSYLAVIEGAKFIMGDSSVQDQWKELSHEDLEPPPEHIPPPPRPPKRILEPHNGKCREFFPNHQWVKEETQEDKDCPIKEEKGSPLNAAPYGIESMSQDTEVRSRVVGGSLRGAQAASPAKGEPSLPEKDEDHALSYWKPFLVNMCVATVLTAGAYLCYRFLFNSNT
Assay: Competitive inhibition of recombinant human PTP1B using p-NPP as substrate at varying concentrations assessed as constant Vmax at 2.5 to 10 uM incubated for 30 mins by Lineweaver-Burk plot analysis
Settings: dose 2.5-10 µM

inhibition: Active
SMILES: CC1(C)[C@@H](O)CC[C@@]2(C)[C@H]1CC[C@@]1(C)CC3=CC[C@H]4C(C)(C)[C@@H](O)CC[C@]4(C)[C@H]3CC[C@@H]12

The source made the active and inactive calls. The calls are words filed in the database; no cut-off is given here.
